Measured values taken from PubChem BioAssay AID1865 (National Center for Advancing Translational Sciences (NCATS), 2009).
This is a selection; strong and weak results do not stand in their true shares. Some results for these compounds are left out of this collection, so the calls shown say nothing about other tests. Active and inactive are the calls of the source. Calls come from the whole dose curve; as a rule, active = well fitted activation curve with a large enough effect; inconclusive = small, poorly fitted or top-dose-only effect; inactive = flat fitted curve, though single readings scatter.

experiment: Quantitative High-Throughput Screen for Regulators of Epigenetic Control; settings: murine LDR cells, GFP reporter derepression, 30 h; at 53.9 µM (top of the series); note: % of control where 0% means no effect; nearly all actives have a fitted effect of over 60% in size
Excerpt: NIH Molecular Libraries Screening Centers Network [MLPCN] NIH Chemical Genomics Center [NCGC] MLSCN Grant: 1 X01 MH079860-01 Assay Provider: Elisabeth D. Martinez, University of Texas SW Medical Center NCGC Assay Overview: The Locus Derepression (LDR) assay detects the derepression or induction of a GFP reporter that is stably integrated in a genomic region of murine cells that is presumably silenced. Transcription of the GFP reporter is controlled by a CMV promoter, which normally is constitutively active. However, this cell line, termed LDR, was selected for lack of constitutive production of GFP. GFP production can be induced by incubating the cells with histone deacetylase or DNA methyltransferase inhibitors (Martinez et al., 2006). Compounds that derepress or induce this reporter locus are identified by enumerating GFP positive cells using a laser-scanning microplate cytometer (Auld et al., 2006). This assay was screened against the MLSMR earlier (AID 597; (Johnson et al., 2008) and has been rescreened here against the expanded collection.
NCGC Assay Protocol Summary: Three hundred LDR cells in 5 uL per well were dispensed into black, clear-bottom 1536-well plates. Twenty-three nL compound was transferred to the assay plate and cells were incubated 30 hours at 37 C. Medium was removed, cells were washed two times with PBS, and GFP-positive cells were enumerated as fluorescent objects between the sizes of 20 to 120 um width and depth using an Acumen Explorer. References Auld, DS, Johnson, RL, Zhang, YQ, Veith, H, Jadhav, A, Yasgar, A, Simeonov, A, Zheng, W, Martinez, ED, Westwick, JK, Austin, CP, Inglese, J (2006). Fluorescent protein-based cellular assays analyzed by laser-scanning microplate cytometry in 1536-well plate format. Methods Enzymol 414: 566-89. Johnson, RL, Huang, W, Jadhav, A, Austin, CP, Inglese, J, Martinez, ED (2008). A quantitative high-throughput screen identifies potential epigenetic modulators of gene expression. Anal Biochem 375: 237-48. Martinez, ED, Dull, AB, Beutler, JA, Hager, GL (2006). High-content fluorescence-based screening for epigenetic modulators. Methods Enzymol 414: 21-36.

| SMILES | GFP activation |
| --- | --- |
| O=C(NCC1(N2CCCCC2)CCCCC1)c1cc([N+](=O)[O-])ccc1Cl | inactive: -0.0337% |
| CN(C)C1(CNC(=O)c2ccccc2F)CCCCC1 | inactive: -1.61% |
| CC(C)N1C(=O)CC2(CCN(CCOC(=O)C(O)(c3ccccc3)c3ccccc3)CC2)C1=O | inactive: -0.813% |
| CN(C)C1(CNC(=O)c2cccc(Cl)c2)CCCCC1 | inactive: 0% |
| CCN(CC)CC(C)C(C)OC(=O)C(O)(c1ccccc1)c1ccccc1 (configuration not stated) | inactive: -0.452% |
| CCCCOc1ccccc1C(=O)NCC1(N(C)C)CCCCC1 | inactive: -0.78% |
| CN(C)C1CCCC1OC(=O)C(O)(c1ccccc1)c1ccccc1 (configuration not stated) | inactive: -0.99% |
| Cc1ccccc1C(=O)NCC1(N2CCCCC2)CCCCC1 | inactive: 2.6% |
| CN(C)C1(CNC(=O)c2ccccc2[N+](=O)[O-])CCCCC1 | inactive: 0% |
| CCN1CCCC(OC(=O)C2(O)c3ccccc3C=Cc3ccccc32)C1 (configuration not stated) | inactive: -0.956% |
| CCOc1cccc(C(=O)NCC2(N(C)C)CCCCC2)c1 | inactive: -0.549% |
| C=CCN1CCN(CCOC(=O)C(O)(c2ccccc2)c2ccccc2)CC1 | inactive: 1.05% |
| COc1ccc(C(=O)NCC2(N(C)C)CCCCC2)cc1Cl | inactive: -3.23% |
| COc1cccc(C(=O)NCC2(N3CCCCC3)CCCCC2)c1 | inactive: -1.5% |
| CC(C)COc1ccc(C(=O)NCC2(N(C)C)CCCCC2)cc1 | inactive: -3.23% |
| O=C(OC1CN2CCC1CC2)C(CO)(c1ccccc1)c1ccccc1 (configuration not stated) | inactive: -0.848% |
| COc1cccc(C(=O)NCC2(N3CCOCC3)CCCCC2)c1 | inactive: -3.23% |
| CN(C)c1cccc(C(=O)NCC2(N(C)C)CCCCC2)c1 | inactive: 3.98% |
| CC(C)Oc1ccc(C(=O)NCC2(N(C)C)CCCCC2)cc1 | inactive: 0% |
| COc1ccc(Br)c(C(=O)NCC2(N3CCCCC3)CCCCC2)c1 | inactive: 5.8% |
| Cc1cccc(C(=O)NCC2(N(C)C)CCCCC2)c1 | inactive: 2.45% |
| COc1cc(C(=O)NCC2(N(C)C)CCCCC2)cc(OC)c1OC | inactive: -2.16% |
